In PubChem BioAssay AID796 (Columbia University Molecular Screening Center, 2007):
This is a selection; strong and weak results do not stand in their true shares. Some of these compounds have results that are not shown, active ones among them. Activity calls are given as the source filed them.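 Rule for the calls: active = inhibition above about 30% together with a positive call from visual inspection of the well image (limit read from the data); inconclusive = inhibition above a set limit but visual check negative; inactive = inhibition not above a set limit, visual check negative.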

Experiment: inhibitors of IL-1B driven NFkB p65 nuclear import, primary screen, imaging, HUVEC, IL-1B stimulus, high-content imaging (AID 796);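 note: nuclear over cytoplasmic p65 intensity ratio measured by imaging; 0% = IL-1B stimulated DMSO wells and 100% = unstimulated DMSO wells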
Conditions: HUVEC IL-1B NFkB p65 nuclear translocation imaging; at 2 µM; hits give high values

Compound	inhibition
CC(C)N1C(=O)CC2(CCN(CCOC(=O)C(O)(c3ccccc3)c3ccccc3)CC2)C1=O	inactive: 9.4%
O=C(OC1CN2CCC1CC2)C(CO)(c1ccccc1)c1ccccc1 (stereo not drawn)	inactive: -7.3%
CN(C)c1cccc(C(=O)NCC2(N(C)C)CCCCC2)c1	inactive: -3.8%
